Assay [1] deals with T1, recombinant human serotonin transporter (Homo sapiens, UniProt P31645).
T1 construct: expressed in transfected cells
Description: biochemical. The note with it: SEROTONIN [I125]-RTI-55 BINDING (Ki).

By UniProt entry, the sequences of proteins in these tests, tags left out.
UniProt P31645, whole entry: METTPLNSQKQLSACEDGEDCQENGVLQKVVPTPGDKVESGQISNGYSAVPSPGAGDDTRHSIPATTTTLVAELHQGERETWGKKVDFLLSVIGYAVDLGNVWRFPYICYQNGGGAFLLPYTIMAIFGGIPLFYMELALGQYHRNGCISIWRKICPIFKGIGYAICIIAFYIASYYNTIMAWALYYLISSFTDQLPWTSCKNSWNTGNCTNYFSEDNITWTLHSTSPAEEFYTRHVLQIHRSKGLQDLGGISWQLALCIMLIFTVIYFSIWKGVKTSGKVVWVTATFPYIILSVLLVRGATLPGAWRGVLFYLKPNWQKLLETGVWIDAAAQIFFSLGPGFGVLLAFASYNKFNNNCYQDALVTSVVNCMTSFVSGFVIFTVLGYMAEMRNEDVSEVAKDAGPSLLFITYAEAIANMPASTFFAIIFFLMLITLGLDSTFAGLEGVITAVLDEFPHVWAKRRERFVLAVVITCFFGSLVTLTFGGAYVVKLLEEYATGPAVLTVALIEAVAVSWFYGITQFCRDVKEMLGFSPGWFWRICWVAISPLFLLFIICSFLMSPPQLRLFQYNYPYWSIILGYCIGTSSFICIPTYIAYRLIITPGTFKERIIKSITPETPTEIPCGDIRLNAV
UniProt P23975, whole entry: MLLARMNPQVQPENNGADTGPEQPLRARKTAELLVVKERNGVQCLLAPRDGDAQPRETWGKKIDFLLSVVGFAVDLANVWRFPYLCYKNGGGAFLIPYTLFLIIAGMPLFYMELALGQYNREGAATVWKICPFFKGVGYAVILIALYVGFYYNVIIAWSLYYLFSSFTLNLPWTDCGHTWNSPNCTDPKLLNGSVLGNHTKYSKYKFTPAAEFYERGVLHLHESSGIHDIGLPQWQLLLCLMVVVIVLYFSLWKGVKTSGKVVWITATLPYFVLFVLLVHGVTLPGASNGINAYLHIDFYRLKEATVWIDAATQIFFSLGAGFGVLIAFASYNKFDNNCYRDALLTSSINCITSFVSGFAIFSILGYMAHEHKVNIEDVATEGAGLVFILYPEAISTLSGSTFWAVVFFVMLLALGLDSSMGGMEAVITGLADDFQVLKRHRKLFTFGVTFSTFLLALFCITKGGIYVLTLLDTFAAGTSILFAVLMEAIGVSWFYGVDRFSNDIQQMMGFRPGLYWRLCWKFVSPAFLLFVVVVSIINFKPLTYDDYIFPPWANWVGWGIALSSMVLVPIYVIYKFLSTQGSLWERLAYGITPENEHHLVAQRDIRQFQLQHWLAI

Assay [2] deals with T2, recombinant human norepinephrine transporter (Homo sapiens, UniProt P23975).
T2 construct: expressed in transfected cells
Description: biochemical. The note with it: HEK 293 cells, read-out: NOREPINEPHRINE [I125]-RTI-55 BINDING (Ki).

The target in assay [3] is T2, recombinant human norepinephrine transporter. Briefly: cell-based. The note with it: RS/SR racemates table; HEK 293 cells; read-out: NOREPINEPHRINE NE REUPTAKE (IC50).

Data on 3 compounds can be found in patent US20060100243A1 (priority 2004, published 2006).

Read-outs that look alike come from different tables or passages of the source.

With `CCCCC(c1ccc(Cl)cc1)C1CCCCN1` (single isomer, unassigned) [GG], in assay [1], the Ki (usually a measure of affinity in units of concentration, obtained from inhibition or displacement) is 4.8 ± 0.7 µM.
For the compound `Clc1ccc(C(C2CCCC2)C2CCCCN2)cc1` (single isomer, unassigned) [K], the Ki in assay [2] (RR/SS racemates table) was found to be 0.38 ± 0.12 µM.
Turning to `Clc1ccc(C(C2CCCC2)C2CCCCN2)cc1` (single isomer, unassigned) [KK], the inhibitory constant (Ki) in assay [2] (RS/SR racemates table) was found to be 3.3 ± 0.8 µM. For the same compound, the half-maximal inhibitory concentration (IC50) – broadly, the midpoint of a concentration-inhibition curve – in assay [3] came to 1 ± 0.3 µM.
